Reference: patent US8653069B2, “Aralkyl substituted piperidine or piperazine derivatives and their use for treating schizophrenia” (Jiangsu Hengyi Pharmaceutical Co., Ltd., priority 2008, dated 2014)

Amino acid sequences for entries named in this document (tags omitted).
UniProt P14416, whole entry: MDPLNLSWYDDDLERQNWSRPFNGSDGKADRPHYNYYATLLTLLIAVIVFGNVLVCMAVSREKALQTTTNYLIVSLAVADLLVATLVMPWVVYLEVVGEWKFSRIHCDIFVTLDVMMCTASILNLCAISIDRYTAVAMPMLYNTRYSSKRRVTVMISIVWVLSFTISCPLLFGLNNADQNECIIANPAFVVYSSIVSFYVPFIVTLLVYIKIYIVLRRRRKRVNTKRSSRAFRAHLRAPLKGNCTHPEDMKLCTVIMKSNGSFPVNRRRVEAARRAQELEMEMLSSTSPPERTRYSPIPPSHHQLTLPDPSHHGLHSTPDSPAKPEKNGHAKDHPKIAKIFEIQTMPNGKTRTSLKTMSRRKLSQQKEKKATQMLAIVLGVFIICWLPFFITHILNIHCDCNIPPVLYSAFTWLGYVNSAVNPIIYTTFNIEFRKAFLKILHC

Biological target: T1, dopamine D2 receptor (Homo sapiens, UniProt P14416)
T1 construct: expressed in transfected cells; host or cells: CHO-hD2L cells (membrane preparation)
Assay: Dopamine D2 receptor-binding assay ([3H]Spiperone displacement)
Conditions: inhibition of binding of 0.4 nM [3H]Spiperone, CHO-hD2L film product, room temperature 120 minutes; read-out: IC50 (affinity to D2 receptor)
Description: A Dopamine D2 Receptor-Binding Assay
An isotope ligand for D2 receptor: [^3H]Spiperone (77.0 Ci/mmol); (+)Butaclamol; GF/C glass fiber media; a liposoluble scintillation solution; and the D2 receptor protein expressed by sf9 cells.
A binding assay of a film product of CHO-hD2L cells and [^3H]Spiperone is conducted in a 250 μl of 50 mM of Tris-HCl […] buffer (Ph=7.4) solution comprising 100 mM of NaCl, 1 mM of MgC12 and 1% of DMSO. A sample in duplicate containing compounds to be tested, 0.4 nM of [^3H]Spiperone and 12 ug of protein is maintained at room temperature for 120 minutes. The bound radioactive ligand is separated by flash filtration under reduced pressure using Whatman GF/B glass fiber filter pre-treated with 0.3% polyethylenelmine, and radioactivity maintained on the filter is measured using liquid scintillation spectrophotometry. The title compounds in the following examples are tested using the above test, which comprises first of all testing competitive inhibition rate of each compound at a concentration of 10 umol/L to binding of [^3H]Spiperone to D2 receptor through a rough screening; and compounds having inhibition rate higher than 95% are subjected to receptor binding assay under a series of concentrations to determine a half-inhibitory concentration (IC50, the concentration of a compound needed for inhibiting binding of 50% [^3H]Spiperone to D2 receptor).

Work on “6-[4-(4-(3-(6-fluoro-benzisoxazolyl))-1-piperazinyl)-n-butoxy]-(1H)-benzimidazole [IV-4]” yielded an IC50 of 15.3 nM.
